Literature values in PMC12767876, “Synthesis and evaluation of enantiomeric quinoline-2-carboxamides: positron emission tomography imaging agents for the translocator protein” (RSC Medicinal Chemistry, 2025).

By UniProt entry, the sequences of proteins in these tests, tags left out. Residues count along the entry.
UniProt P30536, 2-169: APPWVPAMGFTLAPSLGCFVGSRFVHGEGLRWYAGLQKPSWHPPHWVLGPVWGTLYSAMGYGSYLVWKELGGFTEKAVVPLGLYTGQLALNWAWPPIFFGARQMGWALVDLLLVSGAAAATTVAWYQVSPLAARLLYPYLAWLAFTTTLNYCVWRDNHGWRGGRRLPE

What was measured:
[1] = target: TSPO (Homo sapiens, UniProt P30536); design: method as in PMID 32859708; settings: human brain homogenate, (R)-LW223 n = 14, PK11195 n = 18, mean ± SD; read-out: TSPO affinity (Ki); cited from earlier work
[2] = system: TSPO; design: method as in PMID 9234314; settings: R-enantiomer of PK11195; cited from earlier work

Compound: CCC(C)N(C)C(=O)c1cc2ccccc2c(-c2ccccc2Cl)n1 (centres unmarked) [PK11195, reference compound]
- Ki [1]: 1.2 ± 1 nM
- fold higher affinity of the R-enantiomer for TSPO [2]: approximately two-fold
